Read-outs that look alike come from different tables or passages of the source.
Test system: HepG2 cells
Assay type: cell-based, human
Protocol: Human HepG2 cells (4,000 cells/well) were incubated for 3 days with 2-fold serially diluted compounds at 37°C under an atmosphere of 5% CO2. Cell viability was determined by the addition of resazurin (0.0025% wt/vol) for 4 h at 37°C, and the fluorescence intensity was measured as in REMA.

[1] = HepG2 TD50 / M. tuberculosis H37Rv MIC

SMILES	Selective index (TD50/MIC) [1]	Selective index (TD50/MIC)
O=C(/C=C/c1cccs1)N1CCN(Cc2ccc3c(c2)OCO3)CC1 [AX-35, (E)-1-(4-(Benzo[d][1,3]dioxol-5-ylmethyl)piperazin-1-yl)-3-(thiophen-2-yl)prop-2-en-1-one]	1,000	–
O=C(/C=C/c1ccsc1)N1CCN(Cc2ccc3c(c2)OCO3)CC1 [AX-36, (E)-1-(4-(Benzo[d][1,3]dioxol-5-ylmethyl)piperazin-1-yl)-3-(thiophen-3-yl)prop-2-en-1-one]	375	–
O=C(/C=C/c1cscn1)N1CCN(Cc2ccc3c(c2)OCO3)CC1 [AX-37, (E)-1-(4-(Benzo[d][1,3]dioxol-5-ylmethyl)piperazin-1-yl)-3-(1λ^3,3λ^2-thiazol-4-yl)prop-2-en-1-one]	–	250
O=C(/C=C/c1ccccc1)N1CCN(Cc2ccc3c(c2)OCO3)CC1 [AX-38, (E)-1-(4-(Benzo[d][1,3]dioxol-5-ylmethyl)piperazin-1-yl)-3-phenylprop-2-en-1-one]	–	188
O=C(/C=C/c1nccs1)N1CCN(Cc2ccc3c(c2)OCO3)CC1 [AX-39, (E)-1-(4-(Benzo[d][1,3]dioxol-5-ylmethyl)piperazin-1-yl)-3-(thiazol-2-yl)prop-2-en-1-one]	–	250

Source: PMC6178619, “Arylvinylpiperazine Amides, a New Class of Potent Inhibitors Targeting QcrB of Mycobacterium tuberculosis” (mBio, 2018)
